ChEMBL document CHEMBL6074662, “Antibacterial, Antibiofilm, and Anti-inflammatory Effects of a Novel Thrombin-Derived Peptide in Sepsis Models: Insights into Underlying Mechanisms” (J Med Chem, 2024)
In brackets after ≈: the same amount, converted by molar mass.

Tests used:
Bacillus subtilis = experiment: Antibacterial activity against Bacillus subtilis KCTC 3068 incubated for 24 hrs by CLSI based broth microdilution method; type: functional
Staphylococcus aureus [1] = experiment: Antibacterial activity against Staphylococcus aureus KCTC 1621 incubated for 24 hrs by CLSI based broth microdilution method; type: functional
[2] = tested on: Staphylococcus epidermidis; experiment: Antibacterial activity against Staphylococcus epidermidis KCTC 1917 incubated for 24 hrs by CLSI based broth microdilution method; type: functional
Staphylococcus aureus [3] = experiment: Antibacterial activity against methicillin-resistant Staphylococcus aureus CCARM 3089 incubated for 24 hrs by CLSI based broth microdilution method; type: functional
Staphylococcus aureus [4] = experiment: Antibacterial activity against methicillin-resistant Staphylococcus aureus CCARM 3090 incubated for 24 hrs by CLSI based broth microdilution method; type: functional
Staphylococcus aureus [5] = experiment: Antibacterial activity against methicillin-resistant Staphylococcus aureus CCARM 3095 incubated for 24 hrs by CLSI based broth microdilution method; type: functional
Escherichia coli = experiment: Antibacterial activity against Escherichia coli KCTC 1682 incubated for 24 hrs by CLSI based broth microdilution method; type: functional
Pseudomonas aeruginosa [6] = experiment: Antibacterial activity against Pseudomonas aeruginosa KCTC 1637 incubated for 24 hrs by CLSI based broth microdilution method; type: functional
Salmonella typhimurium = experiment: Antibacterial activity against Salmonella typhimurium KCTC 1926 incubated for 24 hrs by CLSI based broth microdilution method; type: functional, Salmonella enterica subsp. enterica serovar Typhimurium; conditions: Salmonella enterica
Pseudomonas aeruginosa [7] = experiment: Antibacterial activity against multidrug-resistant Pseudomonas aeruginosa CCARM 2095 incubated for 24 hrs by CLSI based broth microdilution method; type: functional
Pseudomonas aeruginosa [8] = experiment: Antibacterial activity against multidrug-resistant Pseudomonas aeruginosa CCARM 2109 incubated for 24 hrs by CLSI based broth microdilution method; type: functional

Q: With `CC[C@H](C)[C@H](NC(=O)CN)C(=O)NCC(=O)N[C@@H](C)C(=O)N[C@H](C(=O)N[C@@H](CC(C)C)C(=O)N[C@@H](CCCCN)C(=O)N[C@H](C(=O)N[C@@H](CC(C)C)C(=O)N[C@H](C(=O)N[C@H](C(=O)NCC(=O)N[C@@H](CC(C)C)C(=O)N1CCC[C@H]1C(=O)N[C@@H](C)C(=O)N[C@@H](CC(C)C)C(=O)N[C@H](C(=O)N[C@@H](CO)C(=O)N[C@@H](Cc1c[nH]c2ccccc12)C(=O)N[C@H](C(=O)N[C@@H](CCCCN)C(=O)N[C@@H](CCCNC(=N)N)C(=O)N[C@@H](CCCCN)C(=O)N[C@@H](CCCNC(=N)N)C(=O)N[C@@H](CCC(N)=O)C(=O)N[C@@H](CCC(N)=O)C(N)=O)[C@@H](C)CC)[C@@H](C)CC)[C@@H](C)O)[C@@H](C)O)C(C)C)C(C)C` [MELITTIN] as the compound, how does the MIC (Bacillus subtilis) read?
A: Its MIC is 2 µM (≈ 5.69 µg/mL).

Q: What about the MIC (Staphylococcus aureus [1]) of the same compound?
A: Its MIC is 2 µM (≈ 5.69 µg/mL).

Q: What about the MIC [2] of the same compound?
A: Its MIC is 4 µM (≈ 11.4 µg/mL).

Q: What about the MIC (Staphylococcus aureus [3]) of the same compound?
A: The MIC was 4 µM (≈ 11.4 µg/mL).

Q: And the MIC (Staphylococcus aureus [4])?
A: Its MIC is 4 µM (≈ 11.4 µg/mL).

Q: What about the MIC (Staphylococcus aureus [5]) of the same compound?
A: The MIC was 4 µM (≈ 11.4 µg/mL).

Q: And the MIC (Escherichia coli)?
A: Its MIC is 4 µM (≈ 11.4 µg/mL).

Q: What about the MIC (Pseudomonas aeruginosa [6]) of the same compound?
A: Its MIC is 16 µM (≈ 45.5 µg/mL).

Q: And the MIC (Salmonella typhimurium)?
A: The MIC was 8 µM (≈ 22.8 µg/mL).

Q: What about the MIC (Pseudomonas aeruginosa [7]) of the same compound?
A: The MIC was 2 µM (≈ 5.69 µg/mL).

Q: And the MIC (Pseudomonas aeruginosa [8])?
A: Its MIC is 16 µM (≈ 45.5 µg/mL).
